Like-named read-outs stand apart in the source and are kept apart here.
Biological target: LPAR1 (Homo sapiens, UniProt Q92633)
Experiment: Cell calcium flux assay (antagonist mode, LPA at EC80, FLIPR)
Protocol: • 1) The test compound was diluted to a 400X stock solution with DMSO in a 384-well plate. • 2) 1 µl of compound solution from step 1 was transferred into 39 ul of assay buffer to prepare a 10X working solution in a 384-well plate using a Bravo automated liquid handling platform. • 3) CHO-LPA1 cells were cultured in F12 medium (10% FBS). • 4) When cells reached 80% confluence, the cells were dissociated using 0.25% trypsin-EDTA. • 5) Cell density was determined and the cells were diluted to 4x10e5/ml using F12 (10% FBS). • 6) 30 µl of the cell suspension was dispensed into a 384-well plate (corning 3764#) using a multidrop automated dispenser, resulting in 12,000 cells per well. The plate was incubated at 37°C with 5% CO2 for 18-20 hours. • 7) The medium was replaced with 25 uL of serum-free medium and incubated overnight. • 8) 10 ul of 3.5X loading dye was added to each well of the cell plate. The plate was incubated in the dark at 37°C with 5% CO2 for 0.5-1 hours. • 9) After incubation, 5 µl of the 10X working solution from step 2 was transferred to the cell plate. • 10) The cell plate was incubated in the dark at 25°C for 15 minutes, and then the calcium signals were read. • 11) A 5X agonist (LPA) working solution in 1X HBSS+20 mM HEPES+0.1% BSA was prepared in a 384-well assay plate (greiner 784075#), with at least 20 µl per well. The agonist concentration used in this assay was determined based on the dose-response curve from a prior agonist mode experiment, with the EC80 value serving as the final agonist concentration. • 12) Data were read and saved using FLIPR at room temperature with the specified settings. • 13) The signal values were plotted against compound concentrations, and the curve fitting was performed and the IC50 values were calculated using nonlinear regression analysis in GraphPad Prism software.
IC50 values are represented by grades A, B, C, and D, where A represents 0 < IC50 ≤ 10 nM, B represents 10 nM < IC50 ≤ 50 nM, C represents 50 nM < IC50 ≤ 100 nM, and D represents IC50 > 100 nM. […]

Sequences of proteins named here, by UniProt entry; tags and fusion partners are left off.
UniProt Q92633, whole entry: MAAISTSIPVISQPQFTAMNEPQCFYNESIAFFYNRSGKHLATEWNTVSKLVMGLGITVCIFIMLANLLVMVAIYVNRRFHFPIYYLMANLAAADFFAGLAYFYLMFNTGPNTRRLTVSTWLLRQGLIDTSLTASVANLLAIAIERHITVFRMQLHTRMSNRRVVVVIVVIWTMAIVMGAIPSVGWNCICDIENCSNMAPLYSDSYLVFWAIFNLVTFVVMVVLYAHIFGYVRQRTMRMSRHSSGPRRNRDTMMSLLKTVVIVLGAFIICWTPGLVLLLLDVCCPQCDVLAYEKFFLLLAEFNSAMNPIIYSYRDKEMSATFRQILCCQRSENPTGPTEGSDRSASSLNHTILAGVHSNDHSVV

[1] = read-out: LPAR1 IC50, CHO-LPA1 cells, grades, tested form: free acid

C=C1CC(N(C)C(=O)OCc2c(-c3ccc(OC4CC(C(=O)O)CC5C4C5(F)F)c(C)n3)nnn2C)C1 (single isomer, unassigned)
IC50 (read-out: LPAR1 IC50, CHO-LPA1 cells, grades, tested form: TFA): < 10 nM

CCCN(C)C(=O)OCc1c(-c2ccc(N3CCC4CCC(C(=O)O)CC43)c(C)n2)nnn1C (stereo not drawn)
IC50 [1]: 10 to 50 nM

C=C1CC(N(C)C(=O)OCc2c(-c3ccc(N(C)C4CCCC(C(=O)O)C4)c(C)n3)nnn2C)C1 (single isomer, unassigned)
IC50 [1]: 10 to 50 nM

Reference: patent publication EP4775571A1, “LPAR1 ANTAGONIST AND USE THEREOF” (Haisco Pharmaceutical Group Co., Ltd., priority 2023, dated 2025)
